Several values for one entry are separate records, joined by “and”; a condition that tells them apart may be missing. Equal entries are not always repeated. This is a selection; strong and weak results do not stand in their true shares. Activity calls are given as the source filed them.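 Rule for the calls: active = Hck-Nef kinase inhibition above about 50% (limit read from the data); inactive = inhibition below that limit.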
These compounds were tested against Tyrosine-protein kinase HCK (Homo sapiens) (UniProt P08631) (assay: Hck:Nef complex kinase activity blockers – biochemical, Z-Lyte FRET, 384-well, Hck-YEEI, primary screen (AID 463187;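 note: 0% = DMSO with Hck plus Nef and 100% = Hck alone without Nef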)). Details: Recombinant Hck-YEEI plus Nef, Z-Lyte FRET kinase assay; at 20 µM; stronger effect = higher value.

The chains behind the UniProt entries cited, without tags or fusion partners. Where a name states a change or a piece, a line headed by the entry shows the natural chain unless it says otherwise.
UniProt P08631: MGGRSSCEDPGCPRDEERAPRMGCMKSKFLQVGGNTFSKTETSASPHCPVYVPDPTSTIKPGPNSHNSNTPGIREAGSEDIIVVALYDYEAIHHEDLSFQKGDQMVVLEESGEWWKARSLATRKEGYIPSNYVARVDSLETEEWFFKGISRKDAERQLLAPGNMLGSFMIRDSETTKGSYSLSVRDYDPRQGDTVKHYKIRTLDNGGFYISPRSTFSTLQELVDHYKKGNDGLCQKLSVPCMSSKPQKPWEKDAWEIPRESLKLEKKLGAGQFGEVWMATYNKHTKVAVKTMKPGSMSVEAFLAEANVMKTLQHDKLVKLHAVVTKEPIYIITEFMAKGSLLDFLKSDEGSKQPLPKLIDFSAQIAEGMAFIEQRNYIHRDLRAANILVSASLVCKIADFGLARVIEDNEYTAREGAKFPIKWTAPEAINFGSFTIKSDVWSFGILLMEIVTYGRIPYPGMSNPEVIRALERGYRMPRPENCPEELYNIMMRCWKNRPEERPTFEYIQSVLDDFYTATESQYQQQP

Structure (SMILES) | inhibition
CC(=O)NC(SC(=S)N(CC(C)C)CC(C)C)C(Cl)(Cl)Cl (configuration not stated) | inactive: 1.87%
Cc1ccc(OP(=O)(Nc2ccccn2)Oc2ccc(C)cc2)cc1 | inactive: 15.8%
c1ccc(-c2nn[nH]n2)c(-c2nn[nH]n2)c1 | inactive: 20.1%
Cc1ccc(NP(=O)(Oc2cccc(C)c2)Oc2cccc(C)c2)nc1 | inactive: 6.43%
CCOC(=O)NC(Sc1ccccc1)C(Cl)(Cl)Cl (configuration not stated) | inactive: 1.03%
O=C(NC1CCS(=O)(=O)C1)NP(=S)(Oc1ccccc1)Oc1ccccc1 (configuration not stated) | inactive: 2.52%
CCNC(=S)/N=C(\N)N[N+](=O)[O-] | inactive: 1.03%
CC(=O)Nc1ccc([As](=O)(O)O)c(O)c1 | inactive: 5.5%
CC(=O)Nc1ccc(Oc2c([N+](=O)[O-])cc([N+](=O)[O-])cc2[N+](=O)[O-])cc1 | inactive: 25.1%
C[C@@H]1C=CCP(=O)(Oc2ccccc2)O1 (some centres not stated) | inactive: 25.2%
C[C@H]1OP(=O)(Oc2ccccc2)C[C@@H]2O[C@@H]21 (some centres not stated) | inactive: 30.8%
CC(C)(C)C(=O)NC(Sc1ccccc1)C(Cl)(Cl)Cl (configuration not stated) | inactive: -7.88%
O=P1(Nc2nc3ccc(Cl)cc3s2)COc2ccccc2O1 (configuration not stated) | inactive: -0.716%
CCOc1ccc(C2=NCC(CBr)S2)cc1 (configuration not stated) | inactive: 8.4%
c1nnnn1CCn1cnnn1 | inactive: -0.788%
O=P(Nc1nccs1)(c1ccccc1)c1ccccc1 | inactive: 1.01%
CC(C)C(=O)NC(Sc1ccccc1)C(Cl)(Cl)Cl (configuration not stated) | inactive: 6.01%
O=C(OC1CN2CCC1CC2)c1cccc(Cl)c1 (configuration not stated) | inactive: 0.644%
Nc1ccc([As](=O)(O)c2ccc([N+](=O)[O-])cc2)cc1 | inactive: 1.07%
C(Cc1nn[nH]n1)Cc1nn[nH]n1 | inactive: 5.14%
O=[As](O)(c1ccccc1)c1ccc(O)cc1 | inactive: 9.15%

Structure (SMILES) | inhibition
CC(=O)NC(SC(=S)N(C)C)C(Cl)(Cl)Cl (configuration not stated) | inactive: 5.24%
O=[N+]([O-])c1ncn(CCn2cnc([N+](=O)[O-])n2)n1 | inactive: 17.2%
O=P(Nc1nc2ccccc2s1)(c1ccccc1)c1ccccc1 | inactive: -1.16%
C[C@H]1OP(=O)(Oc2ccccc2)[C@H](O)[C@H](O)[C@H]1N=[N+]=[N-] (some centres not stated) | inactive: 24.9%
O=P(Nc1ccccn1)(c1ccc(Br)cc1)c1ccc(Br)cc1 | inactive: -9.35%
O=C(O)CNc1ccc([As](=O)(O)O)cc1 | inactive: 8.59%
O=[N+]([O-])c1cccc(NC2=NCC(CBr)S2)c1 (configuration not stated) | inactive: -5.08%
O=[N+]([O-])c1ncn(CCn2ncnc2[N+](=O)[O-])n1 | inactive: 19%
CC(C)(C)C(=O)NC(Sc1ccncn1)C(Cl)(Cl)Cl (configuration not stated) | inactive: -8.77%
O=C(Nc1cc([As](=O)(O)O)ccc1O)c1ccccc1 | inactive: 8.55%
CC1CCN(C(=O)Oc2c(Cl)cc(Cl)c3cccnc23)CC1 | inactive: -0.172%
CC(C)=N/N=C(\N)N[N+](=O)[O-] | inactive: 21.9%
CN(C)C(=O)OCCc1n(C)cc[n+]1C | inactive: 0.794%
CCN(/C(=N/P(=O)(N1CCOCC1)N1CCOCC1)N1CCOCC1)c1ccc(OC)cc1 | inactive: 24.9%
Nc1ccc([As](=O)(O)c2ccc(N)cc2)cc1 | inactive: 12.1%
C[N+]1=C2C=CC=CC=C2SC12C([N+](=O)[O-])=CC([N+](=O)[O-])=C[C-]2[N+](=O)[O-] (configuration not stated) | inactive: 5.46%
Cc1ccc(NP(=O)(Oc2ccccc2)Oc2ccccc2)nc1 | inactive: -17.7%
O=[N+]([O-])c1cc([N+](=O)[O-])c(CCNc2ccccc2)c([N+](=O)[O-])c1 | inactive: -0.0803%
CCc1nc2c(n1)c1c(non1O)c1c2no[n+]1[O-] | inactive: 0.615%
CC(=O)N1C2C3N(C(C)=O)C1C1N(C(C)=O)C(C(N1C(C)=O)N3C(C)=O)N2C(C)=O | inactive: 0.314%
O=[N+]([O-])c1cccc2n[nH]nc12 | inactive: -20.8%

Structure (SMILES) | inhibition
COc1ccc(C2=NCC(CBr)S2)cc1 (configuration not stated) | inactive: -5.66%
Oc1ccccc1CNc1ccccn1 | inactive: 3.5%
Cc1c2non([O-])c-2c(C)[n+](=O)[n+]1[O-] | inactive: -3.36%
O=C(NC(Sc1ccncn1)C(Cl)(Cl)Cl)c1ccccc1 (configuration not stated) | inactive: 13.4%
CC(C)CC(=O)NC(Sc1ccc(Cl)cc1)C(Cl)(Cl)Cl (configuration not stated) | inactive: 0.835%
Nc1cc(N)c2nonc2c1[N+](=O)[O-] | inactive: 16.8%
Clc1ccc(Cl)c(NC2=NCC(CBr)S2)c1 (configuration not stated) | inactive: -0.2%
CN1CCCC(OC(=O)C(c2ccccc2)c2ccccc2)C1 (configuration not stated) | inactive: 12.6%
COc1ccccc1OP(=O)(Nc1ccc(C)cn1)Oc1ccccc1OC | inactive: 15.1%
Cc1ccc(OP(=O)(Nc2nccs2)Oc2ccc(C)cc2)cc1 | inactive: 15.4%
Cc1ccc(N/C(=N/P(=O)(N2CCOCC2)N2CCOCC2)N2CCOCC2)cc1 | inactive: 23.6%
NC(=O)c1cc([N+](=O)[O-])cc([N+](=O)[O-])c1N | inactive: 13.8%
Nc1cccc2ccc([As](=O)(O)O)cc12 | inactive: 11.4%
CCN(N=Nc1nonc1N)c1nonc1N | inactive: 0.647%
CCOP(=O)(Nc1ccccc1)OCC | inactive: -6.68% and inactive: 13.3%
Cc1cc(SC(NC(=O)c2ccc(F)cc2)C(Cl)(Cl)Cl)ncn1 (configuration not stated) | inactive: 1.44%
Cc1ccc(NP(=O)(Oc2ccccc2F)Oc2ccccc2F)nc1 | inactive: -0.839%
O=P(Nc1nc2ccc(Cl)cc2s1)(c1ccccc1)c1ccccc1 | inactive: 3.6%
O=C(O)c1ccccc1[As](=O)(O)O | inactive: -9.01%
CC(=O)Nc1ccc([As](=O)(O)O)cc1 | inactive: 6.8%

From PubChem BioAssay AID463187 (University of Pittsburgh Molecular Library Screening Center, 2010)
